Apparent affinities of Ab-14 variants for a coronavirus HR2 peptide

The target is the same throughout: PDVDLGDISGINAS, from the HR2 region of SARS-CoV-2 spike.

The variants keep the heavy chain, the linker and the frameworks of Ab-14 (scFv order VH, three GGGGS repeats, VL).
VH: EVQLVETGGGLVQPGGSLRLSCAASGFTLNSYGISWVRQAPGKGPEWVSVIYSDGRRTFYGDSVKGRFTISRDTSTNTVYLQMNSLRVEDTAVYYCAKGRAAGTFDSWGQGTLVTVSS
VL: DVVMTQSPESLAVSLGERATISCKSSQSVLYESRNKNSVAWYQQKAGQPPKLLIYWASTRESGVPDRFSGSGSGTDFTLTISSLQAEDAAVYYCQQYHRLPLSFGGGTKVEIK

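The starting antibody came from a phage panning campaign against this peptide. Designed CDR sequences, proposed from the first random library and measured here. Group labels follow the data file (En: ensemble of fine-tuned language models; GP: Gaussian process model; HC: hill climbing; Gen: genetic algorithm; Gibbs: Gibbs sampling; a sequence that several methods proposed may carry one label only). The assay is AlphaSeq: two haploid yeast populations carry antibody and antigen on their surface. The frequency of each diploid, read from paired DNA barcodes, reflects how well the two displayed proteins bind. Read counts were normalised to the haploid input and turned into Kd by a linear fit to BCL2-family pairs of known affinity, for each replicate. There are six technical replicates.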

Variants are written as CDR1, CDR2 and CDR3 of the light chain (limits as in the source). Parent: KSSQSVLYESRNKNSVA, WASTRES, QQYHRLPLS. This list holds designs with more than six substitutions. Values are apparent Kd, the geometric mean of the replicates that gave a signal; lower means stronger binding. An entry "nd" has no value in the source: the pair was not observed among the diploids in any replicate. This suggests poor binding but is not conclusive. In the paper, a design with two or fewer of six values counts as a poor binder. Three control strains display no target. For all light chain designs, 4% of the pairings with them gave a signal, with a median of 430 nM and one signal in twenty below 38 nM, so weak values seen in few replicates may be background. The control count says in how many pairings with the empty strains this scFv gave a signal. Values of this round are not directly comparable with the first-round values of the same sequences.

With KITQTMRFEQKQKNNIA / EVTTRSK / QQYYRLPLA [En_Gen] the result was 7.8 nM (6 of 6 replicates; controls 2 of 18). The variant ALSFEMESPHLHSNNVA / SASKLCM / QQYFTLPLS [En_Gibbs] showed 14 nM (6 of 6 replicates; controls 1 of 18). The variant YMSGQIDGGWNQQEAIA / QVTYKED / QQYYHLPLS [En_Gibbs] gave 120 nM (1 of 6 replicates; controls 0 of 18). The variant KLSQAVNMTGKNKNSVA / ELSFREK / QQYERLPLS [En_HC] gave 120 nM (5 of 6 replicates; controls 0 of 18). The variant NVHALMNISSEFQNSIA / DQECRDA / QQYFRLPLS [En_Gibbs] gave nd (0 of 6 replicates; controls 0 of 18). The variant MISQLTNMGTFAINSVA / QASVRNE / QQYDRLPLI [En_Gen] showed 7.3 nM (6 of 6 replicates; controls 3 of 18). The variant ILSQMLLTAGNKHNSVA / QANYREE / QQYHRLPLS [En_HC] showed 19 nM (6 of 6 replicates; controls 1 of 18). The variant KVSQSMDYESRNVNSVA / NASTRLK / QQYHRLPLS [GP_Gibbs] showed 1.4 nM (6 of 6 replicates; controls 1 of 18).

The variant KISQMVRVGSTMSNSIA / EEVTRAK / QQYHRLPLS [En_Gen] gave 2.0 nM (6 of 6 replicates; controls 0 of 18). With TISQVMNTLTRHGNNVA / DLAEREA / QQYFRLPLS [En_Gen] the result was 70 nM (3 of 6 replicates; controls 0 of 18). The variant KFEQLVLPEQRNKNSVA / NASLRED / QQYHRLPLS [GP_Gibbs] gave 4.8 nM (6 of 6 replicates; controls 0 of 18). The variant KLGNMTAIESRNLNSVA / QMDTRES / QQYDRLPLS [En_HC] showed 4.0 nM (6 of 6 replicates; controls 4 of 18). With MISQSFFIGMKAKNSVA / QTNTREE / QQYDRLPLI [En_HC] the result was 61 nM (6 of 6 replicates; controls 1 of 18). With NMRLNEGEIAQHGYAIA / GVDLRAA / QQYARLPLH [En_Gibbs] the result was 16 nM (6 of 6 replicates; controls 0 of 18). With TISQVMNTLTRQGNNVA / DLQNREN / QQYFRLPLS [En_Gen] the result was 4.2 nM (6 of 6 replicates; controls 2 of 18). The variant KMSQAWWYESRMKWSVA / NASEREQ / QQYHRLPLS [GP_Gibbs] gave 2.6 nM (6 of 6 replicates; controls 4 of 18).

The variant KVSQLGLYGQRNKMSVA / DASQRED / QQYHRLPLS [GP_Gibbs] showed 820 pM (6 of 6 replicates; controls 3 of 18). With RLGGLDVNSTYEMDAVA / DVNTVGE / QHYSRLPLT [En_Gibbs] the result was nd (0 of 6 replicates; controls 0 of 18). For VFQQQWDGHTDTHNSVA / NVDHKME / QQYYRLPLL [En_Gibbs], the assay gave 2.2 nM (6 of 6 replicates; controls 2 of 18). For TLMHHQDYGGEIKKSIA / NAIIKEE / QQYSRLPLA [En_Gibbs], the assay gave 5.0 nM (6 of 6 replicates; controls 0 of 18). The variant MLHESTGLMSHKQSSIA / DNSTRED / QQYDRLPLS [En_Gen] gave 2.1 nM (6 of 6 replicates; controls 2 of 18). The variant RLRELNFESGNARNNIA / DAHIHEV / QQYSWLPLC [En_Gibbs] gave 13 nM (6 of 6 replicates; controls 0 of 18). With IISQVDDYLSRNKNSIA / DQSTRGS / QQYDRLPLS [En_HC] the result was 3.6 nM (6 of 6 replicates; controls 1 of 18). With KFQQSVLYEDRNLNNVA / HGSTRSS / QDYHRLPLS [GP_Gibbs] the result was 310 pM (6 of 6 replicates; controls 1 of 18).

For KLSQVTHSEHINKNSIA / EMVTREK / QQYDRLPLS [En_HC], the assay gave 3.9 nM (6 of 6 replicates; controls 1 of 18). The variant KMELYTQQGNLPRNSIA / AATMRWE / QQYSHIPLM [En_Gibbs] showed 140 nM (6 of 6 replicates; controls 1 of 18). With HLGGTMTWESKARNSVA / QSNTRAE / QQYHRLPLS [En_HC] the result was 3.4 nM (6 of 6 replicates; controls 1 of 18). For VLPDHELMLESQQHSIA / NEDKRME / QQYSRLPLM [En_Gibbs], the assay gave 1.6 nM (6 of 6 replicates; controls 0 of 18). For HISANMWMQSSQWDAVA / QGDIANN / QQYSRLPLS [En_Gibbs], the assay gave 29 nM (6 of 6 replicates; controls 0 of 18). The variant KISGSYLGLSRNWNAVA / HASQREQ / QQYHRLPLS [GP_Gibbs] gave 4.9 nM (6 of 6 replicates; controls 1 of 18). With KSEQLVDYKDRNLNSVA / NASTRES / QQYHRLPLS [GP_Gibbs] the result was 1.0 nM (4 of 6 replicates; controls 0 of 18). With MLSGVLHMLGQKKNSIA / DLVMRAN / QQYHRLPLQ [En_Gen] the result was 44 nM (5 of 6 replicates; controls 0 of 18).

The variant KLPMATMVESVSKNNVA / ELTTRGS / QQYNRLPLS [En_HC] showed 5.8 nM (6 of 6 replicates; controls 2 of 18). The variant DVTVVDNGDSKIQNSIA / HGVEKCD / QQYSRLPLA [En_Gibbs] showed 2.1 nM (6 of 6 replicates; controls 1 of 18). For HMSALTLMGSRQRNSVA / QMTTREN / QQYDRLPLS [En_Gen], the assay gave 1.3 nM (6 of 6 replicates; controls 0 of 18). The variant KLSGLMASSKFQKDNVA / ENNTREY / QQYDRLPLS [En_Gen] showed nd (0 of 6 replicates; controls 0 of 18). The variant MLSMVTEGMARKHSSVA / DNSTREA / QQYDRLPLS [En_Gen] showed nd (0 of 6 replicates; controls 2 of 18). For TISELHNQALGMRNNVA / NNQTRED / QQYARLPLS [En_Gen], the assay gave 21 nM (4 of 6 replicates; controls 1 of 18). With KLDQSWMRESRNKNSVA / QASTREQ / QQYHRLPLS [GP_Gibbs] the result was 2.1 nM (6 of 6 replicates; controls 2 of 18). The variant RFDMAMPYANSNINSIA / DKAIQAD / QQYNRLPLS [En_Gibbs] gave 5.4 nM (6 of 6 replicates; controls 0 of 18).

The variant KIGHGLTTESRNKNSVA / QTETRES / QHYHRLPLS [En_HC] showed 780 nM (2 of 6 replicates; controls 2 of 18). With MFSQLTYTGSRARNAVA / QAETRVN / QQYHHLPLI [En_HC] the result was 140 nM (6 of 6 replicates; controls 2 of 18). With LIMKFMSQDGSARNNIA / GDTKLAQ / QHYYRLPLS [En_Gibbs] the result was nd (0 of 6 replicates; controls 0 of 18). The variant KISQATNYLSRVMNSVA / DNSTRES / QQYFRLPLS [En_HC] showed 530 pM (6 of 6 replicates; controls 1 of 18). For NFSQMVSTGMTLRNSVA / HASMRFN / QQYHRLPLI [En_HC], the assay gave 390 nM (6 of 6 replicates; controls 1 of 18). With TLVQSVMSGSRAKNSVA / NAETRYD / QHYHRLPLS [En_HC] the result was 2.9 nM (6 of 6 replicates; controls 1 of 18). With MIDMEEAPNSQKASSIA / QGGLRAK / QQYNRLPLC [En_Gibbs] the result was 2.2 nM (6 of 6 replicates; controls 0 of 18). The variant KLSISMLHESINKHSVA / EVRTREP / QQYDRLPLS [En_HC] showed 2.5 nM (6 of 6 replicates; controls 0 of 18).

The variant QITEEQSMRTQGNWNIA / QAEQKVH / QQYDRLPLA [En_Gibbs] gave 25 nM (6 of 6 replicates; controls 1 of 18). The variant TISQVMNTLTRHGNNVA / DLTEREM / QQYFRLPLS [En_Gen] gave 2.1 nM (6 of 6 replicates; controls 0 of 18). The variant SLAESAHMESRNKNSVA / DNTTRES / QHYDRLPLS [En_HC] gave 1.8 µM (5 of 6 replicates; controls 2 of 18).

Top 7 of the variants detected in all replicates, tightest first:

CDR-L1	CDR-L2	CDR-L3	group	apparent Kd	replicates with signal	empty controls
KFQQSVLYEDRNLNNVA	HGSTRSS	QDYHRLPLS	GP_Gibbs	310 pM	6 of 6	1 of 18
KISQATNYLSRVMNSVA	DNSTRES	QQYFRLPLS	En_HC	530 pM	6 of 6	1 of 18
KVSQLGLYGQRNKMSVA	DASQRED	QQYHRLPLS	GP_Gibbs	820 pM	6 of 6	3 of 18
HMSALTLMGSRQRNSVA	QMTTREN	QQYDRLPLS	En_Gen	1.3 nM	6 of 6	0 of 18
KVSQSMDYESRNVNSVA	NASTRLK	QQYHRLPLS	GP_Gibbs	1.4 nM	6 of 6	1 of 18
VLPDHELMLESQQHSIA	NEDKRME	QQYSRLPLM	En_Gibbs	1.6 nM	6 of 6	0 of 18
KISQMVRVGSTMSNSIA	EEVTRAK	QQYHRLPLS	En_Gen	2.0 nM	6 of 6	0 of 18

The measurements come from Li et al. 2023 (doi:10.1038/s41467-023-39022-2) through the FLAb antibody collection.